Measurements from patent US9353061B2, “3,5,N-trihydroxy-alkanamide and derivatives: method for making same and use thereof” (Academia Sinica, priority 2012, dated 2016).

System: HCT116 colorectal cancer cells
Assay: Cell viability (MTT) under normoxia or hypoxia, oxaliplatin resistance
Conditions: oxaliplatin 5 μM

With oxaliplatin the “cytotoxicity in HCT116 cells under normoxia” value (72 hours, normoxia) was “induced cytotoxicity” and the “cytotoxicity in HCT116 cells under hypoxia” value (hypoxia for the first 24 hours) was “resistance was seen”.
